PglD DTNB – PglD (C. jejuni) enzyme inhibition; purified PglD enzyme, DTNB colorimetric CoA detection; inhibition, % at 12.5 µM; hit rate 0.098% among 360,000; AID 602405; in the data active = inhibition above about 16%, passing the limit was not always enough
Yeast UUG start – yeast start codon fidelity modulation; activity score, % at 18.7 µM; actives 0.13% (n = 350,000); S. cerevisiae UUG-firefly luciferase reporter, luminescence/redox ratio; AID 602363;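 active means replicate mean at a twofold rise or more, about +100% in these data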;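 further: firefly luciferase made from a UUG start codon reports start codon fidelity; reporter light over untreated wells divided by growth signal over untreated wells; some hits fall short of that in this replicate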
miR-122 sensor – miR-122 inhibition in Huh7 cells | hit rate 0.3% among 340,000 | AID 602342 | activation (reporter increase), % at 12.5 µM | Huh7 miR-122 Renilla luciferase sensor, 48 h; neutral wells = 0, positive control = 100;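 active = mean replicate activation score at least 90 and every replicate individually at or above 90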;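 note: higher luciferase means less miR-122 activity so hits act as miR-122 inhibitors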
Wnt bcat act – Wnt/beta-catenin pathway activation; hit rate 1.2% among 300,000; AID 743398; activation, % at 9.35 µM; Wnt/beta-catenin reporter cell assay, activator, plate reader; in the data active = activation above about 30%, passing the limit was not always enough;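 note: 0% = neutral control wells and 100% = positive control wells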
esBAF inh – SWI/SNF esBAF complex inhibition | hit rate 2% among 350,000 | AID 602393 | reporter increase, % at 12.5 µM | mouse ES cells, Bmi1-luciferase knock-in reporter, 24 h; 100% = twice the neutral-well signal; in the data active = activation above about 40%;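 note: 0% = median of the plate's neutral control wells and 100% = double that signal; a rise in the Bmi1 reporter signal indicates esBAF inhibition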
MITF act – increases MITF-driven TRPM1 promoter luciferase signal; SK-MEL-5 TRPM1-promoter luciferase, 24 h; % of positive control, neutral wells = 0; activation, % at 12.5 µM; hit rate 0.75% among 300,000; AID 588334;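 active = mean activation of at least 80% with every replicate also reaching 80%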;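 note: 0% = neutral control wells and 100% = parthenolide positive control wells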
An asterisk follows results filed as active; . = no result; [ ] = remark or other dose. Rows were chosen to be rich in hits. Some 2.8% of all compounds tested hit in one or more screens of this group.

SMILES	PglD DTNB	Yeast UUG start	miR-122 sensor	Wnt bcat act	esBAF inh	MITF act
COc1ccc(N(C(=O)c2ccc(S(=O)(=O)N3CCCC3)cc2)C2C=CS(=O)(=O)C2)cc1 (stereo unspecified)	1	-12	-5	40*	6	-10
Cc1ccc(N(C(=O)c2ccc(S(=O)(=O)N3CCOCC3)cc2)C2C=CS(=O)(=O)C2)cc1 (stereo unspecified)	1	-15	-8	-1	-3	0
CC(C)c1ccc(NC(=O)c2cc(Br)ccc2Br)cc1	.	.	17	-1	72*	29
C/C(=N\N=C(/N)c1nonc1N)c1ccc2c(c1)OCO2	-15	-8	-4	12	61*	.
C/C(=N/NC(=O)c1nnn(-c2nonc2N)c1-c1ccccc1)c1ccc2c(c1)OCO2	-4	-15	-5	-1	-8	2
CC(C)NC(=O)Nc1ccc2c(c1)C(=O)N([C@H](C)CO)C[C@H](C)[C@H](CN(C)C)OCCCC[C@H](C)O2	0	.	6[16.7 µM]	.	.	.
CCOC(=O)/C(C#N)=C/c1cc(C)n(-c2ccc(C)cc2)c1C	-1	-31	.	.	17	93*
COc1ccc(NC(=O)N(C)C[C@H]2OCCCC[C@H](C)Oc3ccc(NS(=O)(=O)c4ccc(C)cc4)cc3C(=O)N([C@@H](C)CO)C[C@H]2C)cc1	7	-2	-1[16.7 µM]	.	1	.
COc1ccc(N2C(=O)c3ccccc3C2O)cc1 (stereo unspecified)	1	5	.	44*	27	21
CCNc1oc(COc2ccccc2F)nc1C#N	2	-8	-4	.	52*	13
CN(C)C(=O)C[C@H]1C=C[C@@H](NC(=O)Nc2cccc(F)c2)[C@@H](CO)O1	0	-7	.	.	1	.
COc1ccc(C(=O)NCC(=O)N=Nc2c(O)n(Cc3ccccc3)c3ccccc23)cc1OC	.	.	.	2	.	-7
O=C(N=Nc1c(O)n(Cc2ccccc2)c2ccccc12)c1ccc(O)cc1	-6	-14	-10	.	.	150*
O=C(N=Nc1c(O)n(Cc2ccccc2)c2ccccc12)c1cc2ccccc2cc1O	-3	-21	.	-1	.	89*
C[C@@H]1CCCCO[C@@H](CN(C)C(=O)c2ccccc2)[C@H](C)CN([C@@H](C)CO)C(=O)c2cc(NC(=O)CCC(F)(F)F)ccc2O1	-3	14	-3[16.7 µM]	.	7	.
c1ccc(-c2nc3ccccc3[nH]2)nc1	-3	-9	-1	20	19	64
c1ccc2[nH]c(-c3ccncc3)nc2c1	.	.	.	2	.	41
c1csc(-c2nc3ccccc3[nH]2)c1	0	1	0	.	46*	33
c1ccc(-c2nc3ccccc3[nH]2)cc1	-2	-24	3	61*	72*	86*
Nc1nc(-c2nc3ccccc3[nH]2)cs1	1	-43	-1	56*	32	.
Cc1ccccc1NC(=S)NCC1CCN(C(C)c2ccccc2)C1 (stereo unspecified)	.	.	0	46*	5	-7
COC(=O)Cn1c2ccccc2c2nc3ccccc3nc21	-5	-6	3	2	50*	30
O=C(O)CCn1c2ccccc2c2nc3ccccc3nc21	-7	-15	5	2	50*	.
C[C@@H]1CN([C@H](C)CO)C(=O)c2cc(NS(=O)(=O)c3ccc(F)cc3)ccc2O[C@@H]1CN(C)C(=O)Nc1ccc(C(F)(F)F)cc1	4	-3	-10[16.7 µM]	.	3	.
O=C(C[C@H]1C[C@H]2c3cc(NC(=O)C4CCOCC4)ccc3O[C@H]2[C@H](CO)O1)NCc1ccccc1	2	-13	5[16.7 µM]	.	0	.
O=C(C[C@H]1CC[C@H](NC(=O)C2CCOCC2)[C@@H](CO)O1)NCc1ccccc1Cl	2	-1	-2[16.7 µM]	.	-4	.
O=C(C#Cc1ccccc1)Nc1ccc(F)cc1	-7	-8	-6	8	49*	.
CCCC(=O)Nc1ccc(C#Cc2ccccc2)cc1	0	-9	-11	38*	54*	96*
CCCC(=O)Nc1ccc(Oc2ccc(NC(=O)CCC)cc2)cc1	-6	-3	-5	-5	-3	-2
O=C(C#Cc1ccccc1)Nc1cccc(F)c1	2	-8	.	-4	-77	.

Six entries picked at random from those above, as already listed:
SMILES	PglD DTNB	Yeast UUG start	miR-122 sensor	Wnt bcat act	esBAF inh	MITF act
O=C(C#Cc1ccccc1)Nc1ccc(F)cc1	-7	-8	-6	8	49*	.
Nc1nc(-c2nc3ccccc3[nH]2)cs1	1	-43	-1	56*	32	.
O=C(C#Cc1ccccc1)Nc1cccc(F)c1	2	-8	.	-4	-77	.
COC(=O)Cn1c2ccccc2c2nc3ccccc3nc21	-5	-6	3	2	50*	30
c1ccc2[nH]c(-c3ccncc3)nc2c1	.	.	.	2	.	41
C[C@@H]1CN([C@H](C)CO)C(=O)c2cc(NS(=O)(=O)c3ccc(F)cc3)ccc2O[C@@H]1CN(C)C(=O)Nc1ccc(C(F)(F)F)cc1	4	-3	-10[16.7 µM]	.	3	.

Other entries.
SMILES	PglD DTNB	Yeast UUG start	miR-122 sensor	Wnt bcat act	esBAF inh	MITF act
CCCCC(=O)Nc1ccc(C(=O)c2ccccc2)cc1	4	1	1	-4	49*	23
CC(=O)Nc1ccc(C(=O)c2ccccc2)cc1	7	-5	0	.	9	7
C[C@H]1CN([C@@H](C)CO)C(=O)c2cc(/C=C/c3ccccc3)cnc2O[C@@H]1CN(C)S(=O)(=O)c1cccs1	-4	7	.	.	6	.
Cc1ccc(S(=O)(=O)N[C@H]2CC[C@@H](CC(=O)N3CCc4ccccc4C3)O[C@@H]2CO)cc1	8	.	-4[16.7 µM]	.	-3	.
C[C@H]1CN([C@@H](C)CO)C(=O)c2cc(-c3ccc(F)cc3)cnc2O[C@@H]1CN(C)C(=O)c1ccc(F)cc1	4	11	-10[16.7 µM]	.	3	.
Cc1[nH]c2ccc(C(=O)Nc3ccncc3)cc2c1C	7	-17	-16	1	12	8
Cc1[nH]c2ccc(C(=O)NC3CCCC3)cc2c1C	0	-9	5	14	28	.
Cc1[nH]c2ccc(C(=O)NC3CCC(C)CC3)cc2c1C (stereo unspecified)	1	-15	32	28	56*	85*
COc1ccccc1NC(=O)c1ccc2[nH]c(C)c(C)c2c1	-4	4	-3	40*	66*	28
Cc1ccc(NC(=O)CN2CCOCC2)cc1	-5	12	-2	-2	3	-3
O=C(CN1CCOCC1)Nc1ccc(C2CCCCC2)cc1	3	-3	4	31*	34	42
Cc1ccc(C(=O)Nc2ncc(Cc3ccc(F)cc3)s2)o1	-6	-19	-10	65*	-1	144*
COc1ccccc1-c1ccc([C@H]2[C@@H](C#N)N(C(=O)C3CCC3)[C@H]2CO)cc1	2	13	.	.	23	.
[O-][n+]1c(/C=C/c2ccccc2)ccc2ccccc21	-9	-25	8	37*	1	21
COc1ccc(C(=O)CC(=O)c2ccccc2O)cc1	3	-7	7	18	39	58
CCC(=O)c1ccc(OCc2ccccc2)c(OC)c1	.	.	-2	.	95*	101*
COc1ccc(C(=O)CC(=O)c2ccccc2O)cc1OC	.	.	-1	-1	57*	67
CC(C)NC(=O)Nc1cccc2c1O[C@@H](CN(C)S(=O)(=O)c1cn(C)cn1)[C@H](C)CN([C@H](C)CO)C2=O	3	-11	-4[16.7 µM]	.	-2	.
Cc1ccc(S(=O)(=O)Nc2cccc3c2O[C@H](CN(C)Cc2ccc4c(c2)OCO4)[C@H](C)CN([C@H](C)CO)C3=O)cc1	0	-2	-1[16.7 µM]	.	1	.
C[C@H]1CN([C@@H](C)CO)C(=O)c2cc(NC(=O)Cn3cnnn3)ccc2O[C@@H]1CN(C)C(=O)Nc1cccc2ccccc12	-3	5	-6[16.7 µM]	.	-5	.

Source: PubChem (Broad Institute)
